Test results taken from BindingDB's records for PubMed 3033464 (Burroughs Wellcome, 1987).
pKi: −log10 of the molar value.

Protein sequences, listed by entry. Tags and fused reporters are not part of them.
UniProt P33535, whole entry: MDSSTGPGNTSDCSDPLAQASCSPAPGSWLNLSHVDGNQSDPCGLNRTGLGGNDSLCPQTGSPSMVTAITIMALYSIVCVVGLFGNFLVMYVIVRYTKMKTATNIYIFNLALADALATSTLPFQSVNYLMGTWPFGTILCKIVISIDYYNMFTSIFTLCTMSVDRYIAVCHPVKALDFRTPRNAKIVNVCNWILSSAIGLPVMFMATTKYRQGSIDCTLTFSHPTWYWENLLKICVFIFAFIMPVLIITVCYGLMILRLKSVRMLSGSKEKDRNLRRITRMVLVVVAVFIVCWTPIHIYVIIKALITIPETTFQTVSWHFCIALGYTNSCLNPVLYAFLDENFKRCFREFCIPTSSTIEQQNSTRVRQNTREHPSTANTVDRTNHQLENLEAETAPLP

Biological target: Mu-type opioid receptor (Rattus norvegicus, UniProt P33535)

Compound: C[C@@H](NC(=O)[C@@H](N)Cc1ccc(O)cc1)C(=O)NCC(=O)N(C)[C@@H](Cc1ccccc1)C(=O)NCCO [[tyrosyl-3,5-3H(N)]-D-Ala2-Mephe4-glyol5-enkephalin]
- pKi: 8.72
